Some of these compounds have results that are not shown, active ones among them.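 Test compounds were applied to cells in 96-well plates for 48 hours at 5 doses. GI50 marks 50% less growth.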
How the values were obtained:
Assay in all cases: NCI-60 cell line screen, 48 h; in the data active = GI50 below about 0.43 µM; inactive = the rest
[1] = system: UACC-257 melanoma
[2] = system: NCI-H322M lung
[3] = system: T-47D breast
[4] = system: MDA-N
[5] = system: HT29 colon
[6] = system: SW-620 colon
[7] = system: HCT-15 colon
[8] = system: A549 NSCLC
[9] = system: LOX IMVI melanoma
[10] = system: UO-31 renal
[11] = system: SN12C renal
[12] = system: NCI-H460 lung
[13] = system: ACHN renal
[14] = system: MOLT-4 leukemia
[15] = system: HCC-2998 colon
[16] = system: SK-OV-3 ovarian
[17] = system: HL-60(TB) leukemia
[18] = system: UACC-62 melanoma
[19] = system: CCRF-CEM leukemia
[20] = system: NCI-H522 lung
[21] = system: M14 melanoma
[22] = system: HCT-116 colon
[23] = system: PC-3 prostate
[24] = system: NCI-H226 lung
[25] = system: MDA-MB-435
[26] = system: SNB-75 CNS
[27] = system: SNB-19 CNS
[28] = system: OVCAR-3 ovarian
[29] = system: SR leukemia
[30] = system: A498 renal
[31] = system: NCI-H23 lung
[32] = system: KM12 colon
[33] = system: HOP-62 NSCLC
[34] = system: RXF 393 renal
[35] = system: SF-268 CNS
[36] = system: IGROV1 ovarian
[37] = system: BT-549 breast
[38] = system: HS 578T breast
[39] = system: SK-MEL-2 melanoma
[40] = system: OVCAR-8 ovarian
[41] = system: TK-10 renal
[42] = system: RPMI-8226 leukemia
[43] = system: EKVX NSCLC
[44] = system: SK-MEL-5 melanoma
[45] = system: DU-145 prostate
[46] = system: K-562 leukemia
[47] = system: COLO 205 colon
[48] = system: MALME-3M melanoma
[49] = system: U251 CNS
[50] = system: SK-MEL-28 melanoma
[51] = system: SF-295 CNS
[52] = system: OVCAR-5 ovarian
[53] = system: MCF7 breast
[54] = system: NCI/ADR-RES ovarian
[55] = system: 786-0 renal
[56] = system: OVCAR-4 ovarian

Measured: GI50

CC#CC(O)(C(=O)OC1CCN(C)CC1)c1ccccn1 (stereo unspecified)
inactive: [1] > 100 µM | [2] > 100 µM | [3] > 100 µM | [4] 33.6 µM | [5] 77.5 µM | [6] 49.1 µM | [7] 74.3 µM | [8] > 100 µM | [9] 20.9 µM | [10] > 100 µM | [11] 24.7 µM | [12] > 100 µM | [13] > 100 µM | [14] 32.6 µM | [15] > 100 µM | [16] > 100 µM | [17] > 100 µM | [18] 52 µM | [19] 25.7 µM | [20] > 100 µM | [21] > 100 µM | [22] 74.3 µM | [23] > 100 µM | [24] > 100 µM | [25] 21.3 µM | [26] 89.3 µM | [27] > 100 µM | [28] 38.7 µM | [29] 37.4 µM | [30] > 100 µM | [31] > 100 µM | [32] > 100 µM | [33] 85.7 µM | [34] > 100 µM | [35] 46.6 µM | [36] > 100 µM | [37] > 100 µM | [38] 32.8 µM | [39] > 100 µM | [40] 46.1 µM | [41] > 100 µM | [42] 78.7 µM | [43] 11.8 µM | [44] > 100 µM | [45] > 100 µM | [46] 23.4 µM | [47] > 100 µM | [48] > 100 µM | [49] > 100 µM | [50] > 100 µM | [51] > 100 µM | [52] > 100 µM | [53] 54.6 µM | [54] 75 µM | [55] 51.8 µM | [56] 44.4 µM
